Reference: patent US20050214899

Tests used:
[1] = target: T1, MQDWLTFQKKHI
T1 chain: MQDWLTFQKKHI

[2] = target: T2, MADWLTFQKKHI
T2 chain: MADWLTFQKKHI

B1: MetAP-M206T-Q233T (protein)
chain: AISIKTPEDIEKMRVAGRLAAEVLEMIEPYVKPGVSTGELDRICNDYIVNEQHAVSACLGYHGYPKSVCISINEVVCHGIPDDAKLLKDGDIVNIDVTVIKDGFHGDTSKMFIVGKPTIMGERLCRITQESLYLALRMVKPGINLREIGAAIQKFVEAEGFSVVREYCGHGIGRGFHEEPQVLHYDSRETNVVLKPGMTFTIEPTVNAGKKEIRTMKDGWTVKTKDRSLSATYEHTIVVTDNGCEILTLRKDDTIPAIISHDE
[1]
  Specific activity (unit/mg): 0.25 unit/mg
[2]
  Specific activity (unit/mg): 1 unit/mg
